Test results published in US20040006236A1, “Diaminopropionic acid derivatives” (priority 1999, published 2004).

Sequences of proteins named here, by UniProt entry; tags and fusion partners are left off. Residues count along the entry.
UniProt P20701, 26-1170 limits assumed: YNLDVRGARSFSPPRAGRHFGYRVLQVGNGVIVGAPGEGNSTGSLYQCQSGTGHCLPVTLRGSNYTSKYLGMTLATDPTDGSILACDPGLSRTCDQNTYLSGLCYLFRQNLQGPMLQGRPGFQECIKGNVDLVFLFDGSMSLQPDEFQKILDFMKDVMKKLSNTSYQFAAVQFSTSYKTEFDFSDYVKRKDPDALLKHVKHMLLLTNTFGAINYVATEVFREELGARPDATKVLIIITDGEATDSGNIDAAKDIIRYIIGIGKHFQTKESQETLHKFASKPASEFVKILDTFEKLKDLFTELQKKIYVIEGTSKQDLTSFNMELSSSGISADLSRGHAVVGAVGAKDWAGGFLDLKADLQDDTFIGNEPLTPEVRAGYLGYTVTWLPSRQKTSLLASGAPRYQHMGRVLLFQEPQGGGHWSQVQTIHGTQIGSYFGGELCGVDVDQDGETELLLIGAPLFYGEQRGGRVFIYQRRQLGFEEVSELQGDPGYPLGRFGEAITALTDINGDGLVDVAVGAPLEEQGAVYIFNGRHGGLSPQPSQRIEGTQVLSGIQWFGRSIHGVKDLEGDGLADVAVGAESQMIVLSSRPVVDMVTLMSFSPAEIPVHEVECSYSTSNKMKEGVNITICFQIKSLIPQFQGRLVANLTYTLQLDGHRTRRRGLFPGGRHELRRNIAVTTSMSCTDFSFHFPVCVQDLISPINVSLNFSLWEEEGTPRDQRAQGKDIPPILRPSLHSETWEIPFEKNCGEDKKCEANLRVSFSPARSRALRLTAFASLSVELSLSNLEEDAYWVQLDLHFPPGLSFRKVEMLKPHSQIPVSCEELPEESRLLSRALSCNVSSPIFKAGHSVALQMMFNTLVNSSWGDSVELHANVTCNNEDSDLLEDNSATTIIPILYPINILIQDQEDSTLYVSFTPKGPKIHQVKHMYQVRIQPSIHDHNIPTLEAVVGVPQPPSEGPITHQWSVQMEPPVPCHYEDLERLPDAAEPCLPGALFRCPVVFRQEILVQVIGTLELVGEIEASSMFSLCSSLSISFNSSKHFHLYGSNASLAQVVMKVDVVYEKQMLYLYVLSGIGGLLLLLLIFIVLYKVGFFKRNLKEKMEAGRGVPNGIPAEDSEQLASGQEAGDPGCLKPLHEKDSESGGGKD

How the values were obtained:
[1] = molecular target: LFA-1 binding to immobilized ICAM-1 (Homo sapiens, UniProt P05107+P20701); experiment: LFA-1/ICAM-1 protein-protein assay (solid-phase ELISA); details: read-out: LFA-1/ICAM-1 Protein-Protein Assay IC50
[2] = system: T lymphocyte proliferation (C57BI/6 spleen cells with irradiated BALB/c spleen cells); experiment: Mixed lymphocyte reaction (MLR), one-way; details: read-out: MLR IC50
[3] = system: cell-surface Mac-1 adhesion to immobilized fibrinogen (HL-60 cells); experiment: Mac-1/Fibrinogen cell-based screening assay; details: read-out: Mac-1/Fgn Cell based Assay IC50
[4] = molecular target: ICAM-1 binding to immobilized Mac-1 (Homo sapiens, UniProt P05107+P11215); experiment: Mac-1/ICAM-1 screening assay (solid-phase ELISA); details: read-out: Mac-1/ICAM-1 Protein-Protein Assay IC50
[5] = system: Mac-1 and LFA-1-mediated neutrophil binding to immobilized ICAM-1; experiment: Neutrophil (Mac-1 and LFA-1)/ICAM-1 cell-based screening assay; details: read-out: Neutrophil/ICAM Assay IC50; human neutrophils
Procedure: Both Mac-1 and LFA-1 are expressed on the cell surface of neutrophils. The ability of antagonists to inhibit Mac-1 and LFA-1-mediated neutrophil binding to immobilized ICAM-1 was quantitated by a cell based assay. Typically, fusion protein consisting of the entire extracellular domain of human ICAM-1 and the Fc domain of human IgG (5dICAM-Ig) was coated onto 96 well microtiter plates (1 μg in 100 μL TBS) overnight at 4° C. The plates were then blocked with 150 μL of 10% PVP in TBS for 1 h at 37° C. Plates were washed 3 times (150 μL each) with TBS. Human neutrophils were purified from whole blood from healthy volunteers using LSM (ICN). Cells (8×10^6/mL) were fluorescently labeled with 6-carboxyfluorescein (100 μg/mL) for 40 min in IMDM/1 mM MgCl2/1.2 mM CaCl2 as described in Example 287. Cells (8×10^6/mL) were stimulated with f-Met-Leu-Phe (10 μM) for 5 min at room temperature just prior to being used in the assay, and diluted to 2×10^6 cells/mL with RPMI/0.05% BSA/0.2 mM MnCl2. Stock solutions (10 mM) of test compounds were diluted to 2.5 mM with DMSO. A series of 1:4 dilutions in DMSO were performed to achieve a concentration range of 38.2 nM-2.5 mM. Each sample was further diluted 50-fold with RPMI/0.05% BSA/0.2 mM MnCl2. […] Unbound cells were washed and plates were read on a Cytofluor™ 2300 (Millipore) as described in Example 384.

Structure (SMILES)	IC50 [1]	IC50 [2]	IC50 [3]	IC50 [4]	IC50 [5]
O=C(NCc1cccc(O)c1)c1ccc(C(=O)N[C@@H](CNC(=O)C2Cc3ccccc3N2)C(=O)O)c(Cl)c1 (stereo partly drawn)	2.6 nM	3100 nM	358 nM		
O=C1CC(C(=O)NC[C@H](NC(=O)c2c(Cl)cccc2Cl)C(=O)O)c2cc(Br)ccc2N1 (stereo partly drawn)	34 nM	31000 nM			
O=C(NCc1cccc2[nH]ccc12)c1ccc(C(=O)N[C@@H](CNC(=O)c2cccs2)C(=O)O)c(Cl)c1 [Compound G, N-[2-chloro-4-[[(1H-indol-4-ylmethyl)amino]carbonyl]benzoyl]-3-(thiophene-2-carbonyl)amino-L-alanine]		445 nM		22 nM	
CC(CC(=O)NC[C@H](NC(=O)c1c(Cl)cccc1Cl)C(=O)O)c1ccccc1 (stereo partly drawn)	19 nM	5500 nM			
NC1CCCC(C(=O)NC[C@H](NC(=O)c2ccc(C(=O)NCc3cccc(O)c3)cc2Cl)C(=O)O)C1 (stereo partly drawn)	2.7 nM	1640 nM	82 nM		
NC1CCCCN(CC(=O)NC[C@H](NC(=O)c2ccc(C(=O)NCc3cccc(O)c3)cc2Cl)C(=O)O)C1=O (stereo partly drawn)	3 nM	650 nM	52 nM		
NC1CC=CCC1C(=O)NC[C@H](NC(=O)c1ccc(C(=O)NCc2cccc(O)c2)cc1Cl)C(=O)O (stereo partly drawn)	2.9 nM	1000 nM	107 nM	18 nM	
CC(CN)C(=O)NC[C@H](NC(=O)c1ccc(C(=O)NCc2cccc(O)c2)cc1Cl)C(=O)O (stereo partly drawn)	1.2 nM	900 nM	135 nM		
Cc1nc(C)c(C(=O)NC[C@H](NC(=O)c2ccc(C(=O)NCc3cccc(O)c3)cc2Cl)C(=O)O)s1	6.8 nM	3750 nM		55 nM	
CC1(C(=O)NC[C@H](NC(=O)c2ccc(C(=O)NCc3cccc(O)c3)cc2Cl)C(=O)O)CC1(Cl)Cl (stereo partly drawn)	3.1 nM	800 nM		38 nM	
O=C(NCc1cc(O)cc(O)c1)c1ccc(C(=O)N[C@@H](CNC(=O)c2cccs2)C(=O)O)c(Cl)c1	1.1 nM	85 nM	27 nM		35 nM
NC(Cc1ccc(F)cc1)C(=O)NC[C@H](NC(=O)c1ccc(C(=O)NCc2cccc(O)c2)cc1Cl)C(=O)O (stereo partly drawn)	7.2 nM	13000 nM	1160 nM		
CC(N)CC(=O)NC[C@H](NC(=O)c1ccc(C(=O)NCc2cccc(O)c2)cc1Cl)C(=O)O (stereo partly drawn)	3.3 nM	1800 nM	155 nM		
NC(CC(=O)NC[C@H](NC(=O)c1ccc(C(=O)NCc2cccc(O)c2)cc1Cl)C(=O)O)C(F)(F)F (stereo partly drawn)	4.9 nM	2400 nM	581 nM		
O=C(NCc1cccc(O)c1)c1ccc(C(=O)N[C@@H](CNC(=O)c2ccc(CCC(Br)CBr)cn2)C(=O)O)c(Cl)c1 (stereo partly drawn)	5 nM			373 nM	
O=C(NCc1cccc(O)c1)c1ccc(C(=O)N[C@@H](CNC(=O)C2CCc3ccccc3C2)C(=O)O)c(Cl)c1 (stereo partly drawn)	1.2 nM	900 nM		32 nM	
O=C(NCc1cccc(O)c1)c1ccc(C(=O)N[C@@H](CNC(=O)C2CSCCC23OCCO3)C(=O)O)c(Cl)c1 (stereo partly drawn)	2.4 nM	680 nM		30 nM	
CC(CC(=O)NC[C@H](NC(=O)c1ccc(C(=O)NCc2cccc(O)c2)cc1Cl)C(=O)O)c1ccccc1 (stereo partly drawn)	2.7 nM	2850 nM		48 nM	
O=C1CC(C(=O)NC[C@H](NC(=O)c2ccc(C(=O)NCc3cccc(O)c3)cc2Cl)C(=O)O)c2cc(Br)ccc2N1 (stereo partly drawn)	1.2 nM			105 nM	
